# Experimental data taken from patent US8846929B2, “Substituted-quinoxaline-type piperidine compounds and the uses thereof” (priority 2007, dated 2014).
# Legend:
# [1] = target: human opioid receptor-like (ORL-1) (Homo sapiens (Human), UniProt P41146); assay: In vitro ORL-1 receptor [35S]GTPγS functional assay; type: biochemical; conditions: mean ± SEM; for EC50: read-out: GTPγS ORL-1 EC50
# kappa opioid receptor = kappa opioid receptor (Homo sapiens (Human), UniProt P41145); assay: In vitro kappa-opioid receptor [35S]GTPγS functional assay; type: biochemical; conditions: mean ± SEM; for EC50: read-out: GTPγS Opioid Receptor Kappa EC50
smiles,measurement,setting,value
O=c1ccc(Nc2nc3ccccc3n(C3CCN(C4CCCCCCC4)CC3)c2=O)c[nH]1,GTPγS ORL-1 Emax,[1],98.7 ± 9.5%
same,EC50,[1],0.169 µM
same,GTPγS Opioid Receptor Kappa Emax,kappa opioid receptor,10 ± 0.6%
same,EC50,kappa opioid receptor,5.33 µM
CSCCC(NC(=O)c1nc2ccccc2n([C@H]2C[C@H]3CC[C@@H](C2)N3C2CCCCCCC2)c1=O)C(=O)O (some centres unmarked),EC50,kappa opioid receptor,25 µM
O=c1c(NCc2ccccc2)nc2ccccc2n1C1CCN(C2CCCCCCC2)CC1,GTPγS ORL-1 Emax,[1],85.3 ± 4.4%
same,EC50,[1],0.076 µM
same,GTPγS Opioid Receptor Kappa Emax,kappa opioid receptor,34.7 ± 1.7%
same,EC50,kappa opioid receptor,1.64 µM
CC(=O)N[C@@H]1CCN(c2nc3ccccc3n(C3CCN(C4CCCCCCC4)CC3)c2=O)C1,GTPγS ORL-1 Emax,[1],97.7 ± 4.8%
same,GTPγS Opioid Receptor Kappa Emax,kappa opioid receptor,29 ± 5.1%
same,EC50,kappa opioid receptor,1.5 µM
O=C1CN(c2nc3ccccc3n(C3CCN(C4CCCCCCC4)CC3)c2=O)CCN1,GTPγS ORL-1 Emax,[1],69.0 ± 2.7%
O=C(O)c1ccc(CNC(=O)c2nc3ccccc3n([C@H]3C[C@H]4CC[C@@H](C3)N4C3CCCCCCC3)c2=O)nc1,GTPγS ORL-1 Emax,[1],44 ± 1.7%
O=C(O)c1nc2ccccc2n([C@H]2C[C@H]3CCC[C@@H](C2)N3C2/C=C\CCCCC2)c1=O (some centres unmarked),EC50,[1],0.032 µM
same,EC50,kappa opioid receptor,> 20 µM
NC(=O)CNc1nc2ccccc2n(C2CCN(C3CCCCCCC3)CC2)c1=O,GTPγS ORL-1 Emax,[1],76 ± 0.6%
NC(=O)CCNc1nc2ccccc2n(C2CCN(C3CCCCCCC3)CC2)c1=O,GTPγS ORL-1 Emax,[1],98.7 ± 4.4%
O=c1c(N2CCC(O)CC2)nc2ccccc2n1C1CCN(C2CCCCCCC2)CC1,GTPγS ORL-1 Emax,[1],99 ± 4.6%
same,EC50,[1],0.957 µM
same,GTPγS Opioid Receptor Kappa Emax,kappa opioid receptor,9 ± 0.6%
same,EC50,kappa opioid receptor,2.82 µM
NC(=O)C1CCCN(c2nc3ccccc3n(C3CCN(C4CCCCCCC4)CC3)c2=O)C1 (centres unmarked),GTPγS ORL-1 Emax,[1],88.7 ± 6.3%
CC(NC(=O)c1nc2ccccc2n([C@H]2C[C@H]3CC[C@@H](C2)N3C2CCCCCCC2)c1=O)C(=O)O (some centres unmarked),EC50,kappa opioid receptor,11.8 µM
O=C1CN(c2nc3ccccc3n([C@H]3C[C@H]4CC[C@@H](C3)N4C3CCCCCCC3)c2=O)CCN1,GTPγS ORL-1 Emax,[1],78.7 ± 3%
same,EC50,[1],0.195 µM
same,GTPγS Opioid Receptor Kappa Emax,kappa opioid receptor,6.7 ± 1.8%
same,EC50,kappa opioid receptor,0.382 µM
O=C(O)c1cc(CNc2nc3ccccc3n([C@H]3C[C@H]4CC[C@@H](C3)N4C3CCCCCCC3)c2=O)ccc1O,EC50,[1],0.0754 µM
CNC(=O)c1nc2ccccc2n(C2CCN(C3CCCCCCC3)CC2)c1=O,GTPγS ORL-1 Emax,[1],102.3 ± 5.7%
O=c1c(NC[C@@H](O)CO)nc2ccccc2n1C1CCN(C23CC4CC(CC(C4)C2)C3)CC1,GTPγS ORL-1 Emax,[1],74.3 ± 3.4%
CC(C)(C)OC(=O)NC1CCN(c2nc3ccccc3n(C3CCN(C4CCCCCCC4)CC3)c2=O)CC1,GTPγS ORL-1 Emax,[1],71.7 ± 1.2%
CCOC(=O)CN(C)c1nc2ccccc2n(C2CCN(C3CCCCCCC3)CC2)c1=O,GTPγS ORL-1 Emax,[1],73.3 ± 2.3%
COC(=O)[C@@H]1CCCN1c1nc2ccccc2n(C2CCN(C3CCCCCCC3)CC2)c1=O,GTPγS ORL-1 Emax,[1],92.3 ± 0.9%
CCOC(=O)CNc1nc2ccccc2n(C2CCN(C3CCCCCCC3)CC2)c1=O,GTPγS ORL-1 Emax,[1],85.3 ± 5.0%
same,GTPγS Opioid Receptor Kappa Emax,kappa opioid receptor,12 ± 1%
same,EC50,kappa opioid receptor,5.24 µM
CC(=O)N1CCC(Nc2nc3ccccc3n(C3CCN(C4CCCCCCC4)CC3)c2=O)CC1,GTPγS ORL-1 Emax,[1],76.3 ± 5.4%
same,GTPγS Opioid Receptor Kappa Emax,kappa opioid receptor,9.33 ± 0.7%
same,EC50,kappa opioid receptor,5.4 µM
C=CCNc1nc2ccccc2n(C2CCN(C3CCCCCCC3)CC2)c1=O,GTPγS ORL-1 Emax,[1],78 ± 2.3%
same,GTPγS Opioid Receptor Kappa Emax,kappa opioid receptor,15.7 ± 2.6%
same,EC50,kappa opioid receptor,7.12 µM
CN(CC(=O)O)C(=O)c1nc2ccccc2n([C@H]2C[C@H]3CC[C@@H](C2)N3C2CCCCCCC2)c1=O,GTPγS ORL-1 Emax,[1],54.0 ± 2.3%
O=C(NOCc1ccccc1)c1nc2ccccc2n(C2CCN(C3CCCCCCC3)CC2)c1=O,GTPγS ORL-1 Emax,[1],105.3 ± 1.7%
O=C(O)c1ccc(CNC(=O)c2nc3ccccc3n([C@H]3C[C@H]4CC[C@@H](C3)N4C3CCCCCCC3)c2=O)cc1,GTPγS ORL-1 Emax,[1],61.0 ± 0.6%
NC(=O)[C@@H]1CCCN1c1nc2ccccc2n(C2CCN(C3CCCCCCC3)CC2)c1=O,GTPγS ORL-1 Emax,[1],86.3 ± 2.4%
O=C(NCc1nn[nH]n1)c1nc2ccccc2n([C@H]2C[C@H]3CC[C@@H](C2)N3C2CCCCCCC2)c1=O,EC50,[1],0.647 µM
CC(=O)NC1CCN(c2nc3ccccc3n(C3CCN(C4CCCCCCC4)CC3)c2=O)CC1,GTPγS ORL-1 Emax,[1],73.7 ± 2.3%
same,EC50,[1],0.95 µM
same,GTPγS Opioid Receptor Kappa Emax,kappa opioid receptor,6.83 ± 0.6%
same,EC50,kappa opioid receptor,1.9 µM
O=c1c(NC[C@H](O)CO)nc2ccccc2n1C1CCN(C2CCCCCCC2)CC1,GTPγS ORL-1 Emax,[1],106.7 ± 3.7%
NCC(O)CNc1nc2ccccc2n(C2CCN(C3CCCCCCC3)CC2)c1=O (centres unmarked),GTPγS ORL-1 Emax,[1],96 ± 2.9%
O=c1c(N2CC[C@H](O)C2)nc2ccccc2n1C1CCN(C2CCCCCCC2)CC1,GTPγS ORL-1 Emax,[1],101 ± 5.9%
O=C(O)c1cccc(CNc2nc3ccccc3n([C@H]3C[C@H]4CC[C@@H](C3)N4C3CCCCCCC3)c2=O)c1,GTPγS ORL-1 Emax,[1],42.3 ± 2.9%
O=C(O)c1nc2ccccc2n([C@H]2C[C@H]3CCC[C@@H](C2)N3C2C3CC4CC(C3)CC2C4)c1=O (some centres unmarked),GTPγS ORL-1 Emax,[1],67.0 ± 5.8%
O=C(O)C1CCCN1C(=O)c1nc2ccccc2n([C@H]2C[C@H]3CC[C@@H](C2)N3C2CCCCCCC2)c1=O (some centres unmarked),GTPγS ORL-1 Emax,[1],82.3 ± 3.7%
CC1(N2[C@@H]3CCC[C@H]2C[C@@H](n2c(=O)c(C(=O)O)nc4ccccc42)C3)CCCCCCC1,GTPγS ORL-1 Emax,[1],117 ± 5%
O=c1c(NC[C@@H](O)CO)nc2ccccc2n1C1CCN(C2CCCCCCC2)CC1,GTPγS ORL-1 Emax,[1],100.3 ± 3.3%
NC(=O)CNc1nc2ccccc2n([C@@H]2C[C@H]3CC[C@@H](C2)N3C2CCCCCCC2)c1=O,EC50,[1],3.24 µM
CC(C)CC(C)N1[C@@H]2CCC[C@H]1C[C@@H](n1c(=O)c(C(=O)O)nc3ccccc31)C2 (some centres unmarked),EC50,kappa opioid receptor,3.27 µM
O=C(O)c1nc2ccccc2n([C@H]2C[C@H]3CC[C@@H](C2)N3C23CC4CC(CC2C4)C3)c1=O,GTPγS ORL-1 Emax,[1],80 ± 4.8%
O=c1c(NCC(O)CO)nc2ccccc2n1C1CCN(C2CCCCCCC2)CC1 (centres unmarked),GTPγS ORL-1 Emax,[1],79 ± 2.5%
NC(=O)c1nc2ccccc2n(C2CCN(C3CCCCCCC3)CC2)c1=O,GTPγS ORL-1 Emax,[1],128 ± 4.7%
same,EC50,[1],0.0978 µM
CS(=O)(=O)N[C@@H]1CCN(c2nc3ccccc3n(C3CCN(C4CCCCCCC4)CC3)c2=O)C1,GTPγS ORL-1 Emax,[1],109.3 ± 5.4%
CS(=O)(=O)NCCNc1nc2ccccc2n(C2CCN(C3CCCCCCC3)CC2)c1=O,GTPγS ORL-1 Emax,[1],45.7 ± 1.8%
same,EC50,[1],0.9 µM
O=C(NCC(O)CO)c1nc2ccccc2n(C2CCN(C3CCCCCCC3)CC2)c1=O (centres unmarked),GTPγS ORL-1 Emax,[1],88.3 ± 2.4%
O=C(O)c1nc2ccccc2n([C@H]2C[C@H]3CCCC[C@@H](C2)N3C2/C=C\CCCCC2)c1=O (some centres unmarked),GTPγS ORL-1 Emax,[1],89.7 ± 5.2%
O=C(NO)c1nc2ccccc2n(C2CCN(C3CCCCCCC3)CC2)c1=O,GTPγS ORL-1 Emax,[1],103.3 ± 5.2%
same,EC50,[1],0.092 µM
CONC(=O)c1nc2ccccc2n([C@H]2C[C@H]3CC[C@@H](C2)N3C2CCCCCCC2)c1=O,GTPγS ORL-1 Emax,[1],89.7 ± 5.4%
NC(=O)[C@H](CO)Nc1nc2ccccc2n(C2CCN(C3CCCCCCC3)CC2)c1=O,GTPγS ORL-1 Emax,[1],71.3 ± 3.7%
N=C(N)NCCNc1nc2ccccc2n(C2CCN(C3CCCCCCC3)CC2)c1=O,GTPγS ORL-1 Emax,[1],85.3 ± 2.7%
O=C(O)c1nc2ccccc2n([C@H]2C[C@H]3CC[C@@H](C2)N3C23CCC(CC2)C3)c1=O,EC50,[1],1.86 µM
NC(=O)[C@H](CO)Nc1nc2ccccc2n([C@@H]2C[C@H]3CC[C@@H](C2)N3C2CCCCCCC2)c1=O,GTPγS ORL-1 Emax,[1],86.3 ± 5.2%
same,EC50,[1],2.43 µM
O=C(O)c1nc2ccccc2n([C@H]2C[C@H]3CCC[C@@H](C2)N3CCC2CCCCC2)c1=O,GTPγS ORL-1 Emax,[1],20.7 ± 3.8%
COC(=O)[C@@H]1C[C@@H](O)CN1c1nc2ccccc2n(C2CCN(C3CCCCCCC3)CC2)c1=O,GTPγS ORL-1 Emax,[1],80.3 ± 1.2%
CN(CC(O)CO)c1nc2ccccc2n(C2CCN(C3CCCCCCC3)CC2)c1=O (centres unmarked),GTPγS ORL-1 Emax,[1],107.7 ± 3.3%
CN(C)c1nc2ccccc2n(C2CCN(C3CCCCCCC3)CC2)c1=O,GTPγS ORL-1 Emax,[1],47.3 ± 2.0%
COC(=O)C1CCN(c2nc3ccccc3n(C3CCN(C4CCCCCCC4)CC3)c2=O)CC1,GTPγS ORL-1 Emax,[1],61 ± 2%
CC(C)(C)OC(=O)N1CCN(c2nc3ccccc3n(C3CCN(C4CCCCCCC4)CC3)c2=O)CC1,GTPγS ORL-1 Emax,[1],55.7 ± 4.2%
O=C1CCN(c2nc3ccccc3n(C3CCN(C4CCCCCCC4)CC3)c2=O)N1,GTPγS ORL-1 Emax,[1],62.0 ± 1.5%
"O=C(O)c1nc2ccccc2n(C2CC3CCCC(C2)N3C23CC4CC(CC2C4)C3)c1=O (centres unmarked) [compound 263, 4-(9-(hexahydro-2,5-methano-pentalen-3a-yl)-9-aza-bicyclo[3.3.1]non-3-yl)-3-oxo-3,4-dihydro-quinoxaline-2-carboxylic acid]",GTPγS ORL-1 Emax,[1],69 ± 2.9%
O=C(O)CN(CCNC(=O)c1nc2ccccc2n([C@H]2C[C@H]3CC[C@@H](C2)N3C23CC4CC(CC(C4)C2)C3)c1=O)CC(=O)O,GTPγS ORL-1 Emax,[1],15 ± 1.2%
O=C(Nc1ccc(=O)[nH]c1)c1nc2ccccc2n(C2CCN(C3CCCCCCC3)CC2)c1=O,GTPγS ORL-1 Emax,[1],102 ± 3.2%
